Measurements: patent US7932240B2, “Phosphadiazine HCV polymerase inhibitors IV” (dated 2011)

Chains of the proteins cited; added tags and fusions are not shown. Lines headed by an entry give the natural chain unless they say otherwise; changes in a name come on top.
UniProt P09884: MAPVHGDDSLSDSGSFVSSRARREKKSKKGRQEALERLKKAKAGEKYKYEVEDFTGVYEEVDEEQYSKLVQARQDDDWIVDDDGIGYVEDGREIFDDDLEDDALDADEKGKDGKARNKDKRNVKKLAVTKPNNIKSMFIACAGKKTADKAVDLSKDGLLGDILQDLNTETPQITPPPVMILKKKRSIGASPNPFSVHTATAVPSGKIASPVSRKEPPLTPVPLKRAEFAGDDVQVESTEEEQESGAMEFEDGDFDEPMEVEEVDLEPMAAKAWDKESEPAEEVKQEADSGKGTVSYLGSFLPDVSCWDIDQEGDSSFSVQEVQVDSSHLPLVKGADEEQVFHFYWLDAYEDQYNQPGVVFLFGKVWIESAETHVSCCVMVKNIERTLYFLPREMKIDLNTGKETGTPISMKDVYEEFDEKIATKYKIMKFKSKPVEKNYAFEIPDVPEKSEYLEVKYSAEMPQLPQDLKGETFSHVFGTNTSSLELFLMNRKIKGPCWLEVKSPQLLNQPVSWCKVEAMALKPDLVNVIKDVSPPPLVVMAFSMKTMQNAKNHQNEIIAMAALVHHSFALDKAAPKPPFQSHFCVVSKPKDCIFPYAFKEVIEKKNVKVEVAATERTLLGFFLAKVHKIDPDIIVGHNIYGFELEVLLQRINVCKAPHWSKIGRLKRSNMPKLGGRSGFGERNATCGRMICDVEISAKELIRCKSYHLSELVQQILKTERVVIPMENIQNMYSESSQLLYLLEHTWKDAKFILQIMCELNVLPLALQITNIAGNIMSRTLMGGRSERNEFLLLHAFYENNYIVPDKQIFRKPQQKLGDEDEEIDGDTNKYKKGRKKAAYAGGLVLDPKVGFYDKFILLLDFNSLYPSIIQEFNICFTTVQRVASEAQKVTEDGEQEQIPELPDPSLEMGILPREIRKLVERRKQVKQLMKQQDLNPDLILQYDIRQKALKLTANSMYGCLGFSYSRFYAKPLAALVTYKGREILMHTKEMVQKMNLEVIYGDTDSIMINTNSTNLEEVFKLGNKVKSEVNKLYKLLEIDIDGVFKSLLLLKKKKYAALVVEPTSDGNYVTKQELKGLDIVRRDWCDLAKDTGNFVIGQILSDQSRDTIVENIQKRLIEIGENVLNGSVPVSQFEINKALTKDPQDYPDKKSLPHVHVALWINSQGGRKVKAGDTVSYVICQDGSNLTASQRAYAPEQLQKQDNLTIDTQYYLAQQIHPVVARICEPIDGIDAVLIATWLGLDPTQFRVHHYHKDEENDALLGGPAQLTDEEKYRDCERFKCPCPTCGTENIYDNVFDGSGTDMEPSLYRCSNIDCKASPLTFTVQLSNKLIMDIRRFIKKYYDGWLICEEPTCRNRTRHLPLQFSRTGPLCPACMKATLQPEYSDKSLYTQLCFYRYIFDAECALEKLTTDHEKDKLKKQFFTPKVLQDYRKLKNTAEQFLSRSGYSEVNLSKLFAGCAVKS
UniProt P54098: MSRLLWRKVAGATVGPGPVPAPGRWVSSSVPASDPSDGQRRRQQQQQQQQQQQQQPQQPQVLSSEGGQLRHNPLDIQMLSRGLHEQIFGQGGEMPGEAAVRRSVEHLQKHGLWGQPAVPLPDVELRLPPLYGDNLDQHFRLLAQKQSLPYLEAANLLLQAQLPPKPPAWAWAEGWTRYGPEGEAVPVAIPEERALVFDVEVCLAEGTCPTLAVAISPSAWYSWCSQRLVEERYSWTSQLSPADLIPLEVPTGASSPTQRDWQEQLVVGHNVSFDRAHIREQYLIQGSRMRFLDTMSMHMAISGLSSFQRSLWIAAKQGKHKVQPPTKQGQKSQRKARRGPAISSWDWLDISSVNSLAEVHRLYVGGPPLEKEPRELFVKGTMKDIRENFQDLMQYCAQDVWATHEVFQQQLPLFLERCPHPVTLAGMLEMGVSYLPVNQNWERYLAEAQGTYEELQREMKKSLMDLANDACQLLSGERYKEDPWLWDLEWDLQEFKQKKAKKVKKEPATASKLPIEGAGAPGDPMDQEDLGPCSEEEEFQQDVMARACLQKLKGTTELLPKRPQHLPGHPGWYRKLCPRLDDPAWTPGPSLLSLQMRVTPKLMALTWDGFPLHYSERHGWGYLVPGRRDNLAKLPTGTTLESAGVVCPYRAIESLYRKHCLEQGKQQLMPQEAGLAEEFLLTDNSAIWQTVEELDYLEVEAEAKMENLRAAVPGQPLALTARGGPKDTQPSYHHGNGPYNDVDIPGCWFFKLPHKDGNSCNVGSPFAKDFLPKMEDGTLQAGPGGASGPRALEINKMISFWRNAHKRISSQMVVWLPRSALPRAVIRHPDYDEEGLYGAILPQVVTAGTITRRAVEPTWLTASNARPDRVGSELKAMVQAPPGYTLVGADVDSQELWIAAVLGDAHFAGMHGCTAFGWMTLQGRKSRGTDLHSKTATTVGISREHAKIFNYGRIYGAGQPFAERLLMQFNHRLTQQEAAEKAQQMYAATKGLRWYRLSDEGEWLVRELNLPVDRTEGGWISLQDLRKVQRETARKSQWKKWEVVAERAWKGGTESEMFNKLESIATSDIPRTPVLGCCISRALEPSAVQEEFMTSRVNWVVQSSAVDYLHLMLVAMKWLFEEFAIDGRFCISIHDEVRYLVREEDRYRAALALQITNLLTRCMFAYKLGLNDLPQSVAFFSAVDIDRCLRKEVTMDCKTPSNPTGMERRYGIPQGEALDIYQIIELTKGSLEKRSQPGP

What was measured:
[1] = target: human DNA polymerase alpha (Homo sapiens, UniProt P09884); assay: Human cellular DNA polymerase alpha assay; conditions: read-out: Mean IC50 Values (μM) ± Standard Deviation, human DNA polymerase alpha; Table 9; N = 2
[2] = target: human DNA polymerase gamma (Homo sapiens, UniProt P54098); assay: Human cellular DNA polymerase gamma assay; conditions: read-out: Mean IC50 Values (μM) ± Standard Deviation, human DNA polymerase gamma; Table 9; N = 2

In the case of Actinomycin D, the IC50 [1] is reported as 22.5 µM and the IC50 [2] is reported as 10.8 µM.
